According to PubChem BioAssay (NCI):
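Compound exposure: 48 hours, 5 concentrations, 96-well plates. At the GI50, growth is halved. TGI: concentration producing complete growth inhibition.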

Legend:
Assay in all cases: NCI-60 cell line screen, 48 h
[1] = test system: HOP-92 NSCLC
[2] = test system: NCI-H226 lung
[3] = test system: NCI-H23 lung
[4] = test system: UACC-257 melanoma

## OCC1OC(OCCO/N=C2/C(c3c(O)[nH]c4ccccc34)=Nc3ccccc32)C(O)C(O)C1O (stereo not drawn)
[1]
  GI50: 47.3 µM
  TGI: > 100 µM
[2]
  GI50: 1.25 µM
  TGI: > 100 µM
[3]
  GI50: 0.675 µM
  TGI: > 100 µM
[4]
  GI50: > 100 µM
  TGI: > 100 µM
